For this assay, the target named is T1, LHRH receptors (Rattus norvegicus, UniProt P30969).
T1 construct: endogenous in cells; host or cells: dispersed pituitary cells, fixed after the plaque assay
T1 sequence (P30969 1-327): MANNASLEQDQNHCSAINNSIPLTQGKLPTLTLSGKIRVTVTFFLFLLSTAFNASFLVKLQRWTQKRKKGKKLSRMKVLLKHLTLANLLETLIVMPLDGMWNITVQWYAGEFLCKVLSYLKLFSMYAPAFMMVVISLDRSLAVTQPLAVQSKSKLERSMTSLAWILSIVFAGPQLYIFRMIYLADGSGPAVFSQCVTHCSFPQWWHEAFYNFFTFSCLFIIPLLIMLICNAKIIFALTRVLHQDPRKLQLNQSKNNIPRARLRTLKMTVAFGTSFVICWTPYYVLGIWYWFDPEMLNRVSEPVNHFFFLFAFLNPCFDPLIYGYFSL
The assay can be described thus: Immunocytochemical assay for LHRH cell surface receptors. It counts as cell-based. Conditions: control experiments. How it is done: After standard plaque assays were performed (as in Example 4B), the chambers were infused with sodium acetate to elute the bound antibodies and fixed sequentially in B5 fixative, ethanol, Lugol's iodide and sodium thiosulfate (as described in Smith et al., Methods in Enzymology, 124, p. 443). The slides were treated with hydrogen peroxide and normal goat serum before application of suitable dilutions of the antibodies. Immunocytochemistry was performed with the ABC method (Vector Labs, Burlingame, Calif.) with diaminobenzidine as substrate.
Cells containing LH were selectively stained with antibodies to LH. In general, plaques formed in the assays of earlier examples contained one LH-containing cell near the center of each circular plaque. Cells presenting LHRH receptors were stained using IgG fractions of immune serum from rabbits immunized with a peptide complementary to LHRH (see Example 4C). Again, one cell per circular plaque was stained and these were the same cells that contained LH.

As for “GLN--HIS--TRP--SER--TYR--GLY--LEU--ARG--PRO--GLY [LHRH]”, the “blocking of receptor staining by the antibody (in words)” value was “could be blocked”.

(Values after patent US5077195A, “Polypeptides complementary to peptides or proteins having an amino acid sequence or nucleotide coding sequence at least partially known and methods of design therefor” (Board of Reagents, The University of Texas System, priority 1986, dated 1991).)
